Measured values from ChEMBL document CHEMBL3352519, “Discovery of a novel pyrazole series of group X secreted phospholipase A2 inhibitor (sPLA2X) via fragment based virtual screening” (Bioorg Med Chem Lett, 2014).

Target: T1, Group 10 secretory phospholipase A2 (Homo sapiens, UniProt O15496)
T1 sequence (O15496 whole entry): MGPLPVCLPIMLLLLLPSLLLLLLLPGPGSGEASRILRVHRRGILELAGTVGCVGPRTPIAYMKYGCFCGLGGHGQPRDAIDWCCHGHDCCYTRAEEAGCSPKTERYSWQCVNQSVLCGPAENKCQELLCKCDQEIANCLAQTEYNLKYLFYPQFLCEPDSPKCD
Assay: Inhibition of human sPLA2X using 1,2-bis(heptanoylthio) glycerophosphocholine substrate incubated for 30 mins

**Q.** For `CCc1c(C(=O)C(N)=O)c2c(OCC(=O)O)cccc2n1Cc1ccccc1` [VARESPLADIB], which IC50 is on record?
**A.** 107 nM
